Measured values reported in publication PMC3938055.

How the values were obtained:
EGFP-CENP-S (human) = EGFP-CENP-S (human) (UniProt Q8N2Z9); test: FRET or BRET; acceptor photobleaching FRET at centromeres in living cells; EGFP donor, mCherry acceptor bleached in a 4-10 µm^2 region; E_FRET against EVAR of an unbleached region, Mann-Whitney rank-sum test
CENP-S-EGFP (human) = CENP-S-EGFP (human) (UniProt Q8N2Z9); test: as above

Substance: histone H3.1-mCherry (from UniProt P68431 1-136) (natural protein; other documents disagree on this pair)
- E FRET (EGFP-CENP-S (human)): 2.88
- ΔE (E FRET – EVAR) (EGFP-CENP-S (human)): 4.24
- E FRET (CENP-S-EGFP (human)): 2.08
- ΔE (E FRET – EVAR) (CENP-S-EGFP (human)): 3.65
